The target in one data set is human delta receptor (Homo sapiens, UniProt P41143). Description: radioligand binding, human delta receptor, HEK-293 cell membranes. The note with it: read-out: δ, cell not marked (rat), species not given.
The target in a further data set is human mu opioid receptor (Homo sapiens, UniProt P35372). Briefly: radioligand binding, human mu opioid receptor, CHO cell membranes. To be noted: read-out: μ, cell not marked (rat), species not given.
The test system of another data set is mouse vas deferens. Description: electrically stimulated mouse vas deferens (MVD) ED50. The note with it: read-out: MVD; ED50, inhibition of electrically induced contractions. The class given is cell-based.
Another data set relates to guinea pig ileum. Description: electrically stimulated guinea pig ileum (GPI) ED50. The data set is classed as cell-based. The note with it: read-out: GPI; ED50, inhibition of electrically induced contractions. Here is the method: Further the compounds of formula (1) were evaluated for in vitro opioid receptor activity in various receptor systems, including mouse vas deferens (Mouse Vas Deferens ED50), and guinea pig ileum (Guinea Pig Ileum ED50). The assay procedures used for such determinations of receptor activity are set out below.
Intact ileums (about 3 cm length) were removed from guinea pig and suspended with 1 g of tension in a bath chamber as described for the vasa deferentia. The ileums were stimulated with electrical square-wave pulses of 0.1-Hz, 1 msec pulse duration at supramaximal voltage.
The ED50 values were extrapolated from curves showing the dose concentration plotted against the response (J. A. H. Lord, A. A. Waterfield, J. Hughes, H. W. Kosterlitz, Nature 267, 495, (1977)).

Sequences of proteins named here, by UniProt entry; tags and fusion partners are left off. A change or cut given only in a name is not applied to a line headed by its entry.
UniProt P41143: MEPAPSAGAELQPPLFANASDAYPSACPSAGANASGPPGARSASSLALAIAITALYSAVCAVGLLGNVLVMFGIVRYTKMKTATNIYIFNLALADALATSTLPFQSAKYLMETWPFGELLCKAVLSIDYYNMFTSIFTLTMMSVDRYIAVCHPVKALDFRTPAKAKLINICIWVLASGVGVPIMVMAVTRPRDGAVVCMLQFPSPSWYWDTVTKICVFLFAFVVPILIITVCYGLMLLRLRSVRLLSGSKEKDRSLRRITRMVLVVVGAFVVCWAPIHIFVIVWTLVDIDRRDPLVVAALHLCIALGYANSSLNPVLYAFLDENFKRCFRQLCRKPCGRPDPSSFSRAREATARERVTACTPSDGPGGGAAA
UniProt P35372: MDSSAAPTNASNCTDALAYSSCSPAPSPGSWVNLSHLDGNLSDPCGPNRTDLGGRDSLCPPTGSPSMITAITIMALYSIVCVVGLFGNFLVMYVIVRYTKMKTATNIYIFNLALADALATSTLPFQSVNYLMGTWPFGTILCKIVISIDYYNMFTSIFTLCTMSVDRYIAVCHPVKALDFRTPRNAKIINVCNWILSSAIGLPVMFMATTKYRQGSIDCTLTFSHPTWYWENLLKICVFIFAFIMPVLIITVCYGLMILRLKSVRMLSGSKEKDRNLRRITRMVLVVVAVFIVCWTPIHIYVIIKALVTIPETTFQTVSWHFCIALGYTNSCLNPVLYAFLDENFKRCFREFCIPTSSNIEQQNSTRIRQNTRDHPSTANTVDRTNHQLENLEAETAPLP

Data set [1] relates to seizure-like convulsions in mice. Description: mouse seizure-like convulsions. The data set is classed as in vivo. The note with it: 10 mg/kg IV. Here is the method:
Mouse Seizure-Like Convulsions and antinociception: The central (CNS) effects of the compound were tested with central delta receptor mediated seizure-like convulsions and central mu opioid receptor mediated antinociceptive effects in mice. Male CD-1 mice (Charles River, Raleigh, N.C.) weighing 20-25 g were used to determine the seizure-like convulsion and antinociception activities for compounds.
They were then observed for seizure-like convulsions for one hour following the treatment. A seizure-like event was recorded if a mouse had uncontrollable clonic (or tonic/clonic) muscle movements that encompassed its entire body, usually followed by a brief cataleptic period. Catalepsy was determined by placing the animal's front paws on a horizontal bar held 2-3 inches from the cage floor. Cataleptic animals made no attempt to remove their paws.

This is an account of results in patent US7683168B2, “Compositions of novel opioid compounds and method of use thereof” (priority 2005, dated 2010).

In the case of “4-(4-{3-[(R)-((2S,5R)-4-Allyl-2,5-dimethyl-piperazin-1-yl)-(3-hydroxy-phenyl)-methyl]-benzoyl}-piperazin-1-ylmethyl)-benzoic acid”, the Ki at human delta receptor was 1.7 nM; on human mu opioid receptor, 30.7 nM. Further, the EC50 stood at 9.82 nM with mouse vas deferens and 304 nM in the data set on guinea pig ileum. In addition, the Seiz. in data set [1] was determined as 0% 10 mg/kg IV.
For the substance “7-(4-{3-[(R)-((2S,5R)-4-Cyclopropylmethyl-2,5-dimethyl-piperazin-1-yl)-(3-hydroxy-phenyl)-methyl]-benzoyl}-[1,4]diazepan-1-yl)-heptanoic acid”, the values for the Ki at human delta receptor and on human mu opioid receptor were 23.2 nM and 4 nM, respectively. Besides, the EC50 in the data set on mouse vas deferens was determined as 39 nM.
